Measured values from patent publication US20260176254A1, “INHIBITORS OF PROSTATE SPECIFIC MEMBRANE ANTIGEN AND USE THEREOF” (SHANGHAI SINOTAU BIOTECH. CO., LTD, priority 2023, published 2026).

Assays:
[1] = Tissue biodistribution in LnCAP tumor mouse model; design: species or system mice; conditions: male, SCID, in vivo, iv, total radioactivity
Description: (§1) LnCAP and 22RV1 CDX xenograft tumor models were generated by inoculating 5×10^6 cells/site subcutaneously in male SCID or nude mice (Vital River), respectively. Animals were housed according to IACUC guidance and had accessed to food and water ad libitium. Animals were used for biodistribution study when the tumor dimensions reached around 0.2-0.3 cm^3. […] At each tome point, animals were sacrificed and tissues were collected, weighted, and subjected to radioactivity measurements using gamma counter. Radioactivity in the tissues was presented in % ID/g (percent of injected dose per gram).

[2] = Tissue biodistribution in 22Rv1 tumor mouse model; design: species or system mice; conditions: male, nude, in vivo, iv, total radioactivity
Description: as §1

Structure (SMILES): O=C(O)CC[C@H](NC(=O)N[C@@H](CCCCNC(=O)[C@H](Cc1ccc2ccccc2c1)NC(=O)[C@H]1CC[C@H](CNC(=O)CN2CCN(CC(=O)O)CCN(CC(=O)O)CCN(CC(=O)O)CC2)CC1)C(=O)O)C(=O)O [[^177Lu]Lu-PSMA-617, metal not drawn, reference compound]
- tissue uptake at 72 h ([1]; Tissue biodistribution: Blood): 0.02 ± 0.01 %ID/g
- tissue uptake at 168 h ([1]; Tissue biodistribution: Blood): 0.02 %ID/g
- tissue uptake at 24 h ([1]; Tissue biodistribution: Muscle): 0.02 %ID/g
- tissue uptake dose at 168 h [2]: 0.2 %ID
- tissue uptake at 72 h ([2]; Tissue biodistribution: Blood): 0.02 ± 0.02 %ID/g
- tissue uptake at 168 h ([2]; Tissue biodistribution: Blood): 0.02 %ID/g
- tissue uptake at 24 h ([2]; Tissue biodistribution: Muscle): 0.01 %ID/g
